82 molecules from PubChem BioAssay AID624125 (The Scripps Research Institute Molecular Screening Center, 2012) can be followed below.

Chains of the proteins cited; added tags and fusions are not shown.
UniProt P08173, whole entry, looked up: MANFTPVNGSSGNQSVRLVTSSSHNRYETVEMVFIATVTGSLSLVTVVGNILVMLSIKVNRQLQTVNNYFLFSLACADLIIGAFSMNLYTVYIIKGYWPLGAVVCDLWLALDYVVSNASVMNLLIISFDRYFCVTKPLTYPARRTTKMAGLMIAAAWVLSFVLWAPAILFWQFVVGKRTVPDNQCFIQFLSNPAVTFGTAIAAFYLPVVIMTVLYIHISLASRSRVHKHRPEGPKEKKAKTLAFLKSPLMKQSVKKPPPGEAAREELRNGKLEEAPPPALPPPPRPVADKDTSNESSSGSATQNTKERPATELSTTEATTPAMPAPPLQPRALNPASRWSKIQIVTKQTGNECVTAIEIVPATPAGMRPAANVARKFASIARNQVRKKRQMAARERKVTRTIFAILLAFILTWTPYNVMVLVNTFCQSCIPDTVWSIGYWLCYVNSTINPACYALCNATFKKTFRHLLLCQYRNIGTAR

The structures appear in SMILES notation. Only a part is listed here, and it is no random draw. The source made the active and inactive calls.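 How the source made its calls: active means inhibition above its plate's cutoff, the mean inhibition of sample wells plus 3 SD (cut at about 27% in these data); inactive means the rest.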

What is called inhibition is the change of the read-out against control, counted positive when it falls.

The assay concerns the target Muscarinic acetylcholine receptor M4 (Homo sapiens) (UniProt P08173). Briefly: CHRM4 blockers of acetylcholine calcium response – CHO cells, Fluo-8 calcium fluorescence, primary screen (AID 624125).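 Further: 0% = acetylcholine EC80 with DMSO and 100% = DMSO without agonist.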 To be noted: CHO-hM4 cells, ACh EC80, Fluo-8 calcium fluorescence; at 3 µM; active compounds read high.
For `CN(C)C(=O)c1cc([N+](=O)[O-])cc2c1-c1c(cc([N+](=O)[O-])cc1[N+](=O)[O-])C2=O`, the inhibition was inactive: 15.8%.

For `O=[N+]([O-])c1ccc2c(c1)nnn2O`, the inhibition was inactive: 3.85%.

As for `CN(C(=O)Cc1ccc(Cl)c(Cl)c1)[C@H]1CC[C@@]2(CCCO2)C[C@@H]1N1CCCC1`, the inhibition was inactive: 0.4%.

`N#CCCN(C(=O)COC(=O)C(O)(c1ccccc1)c1ccccc1)c1ccc(F)cc1`: the inhibition is inactive: -1.42%.

As for `CCOP1(=S)c2c(C)nn(CCC#N)c2N=C(c2ccc(F)cc2)N1C` (configuration not stated), the inhibition is inactive: 7.84%.

As to `CN(C(=O)Cc1ccccc1)[C@@H]1CC[C@]2(CCCO2)C[C@H]1N1CCCC1`, the inhibition was inactive: -3.46%.

As to `O=[As](O)(O)c1cccnc1`, the inhibition is inactive: 0.08%.

For the molecule `CS(=O)(=O)c1ccc(Cl)c(NC(=O)COC(=O)C(O)(c2ccccc2)c2ccccc2)c1`, the inhibition was inactive: 1.99%.

Consider `O=C(OC1CN2CCC1CC2)c1ccc(Cl)cc1` (configuration not stated), for which the inhibition is inactive: 18.2%.

Regarding `O=[As](O)(c1cccc(O)c1)c1cccc(O)c1`, the inhibition was inactive: 4.44%.

For the molecule `Cc1cccc(OCC(=O)OC2CN3CCC2CC3)c1` (configuration not stated), the inhibition was inactive: 5.19%.

Turning to `CCCOP(=S)(Nc1nc(N)cc(=O)[nH]1)OCCC`, the inhibition was inactive: 4.58%.

For the molecule `C[C@H]1C(=O)O[C@@H]2CCN3CC=C(COC(=O)[C@](C)(O)[C@]1(C)O)[C@H]23`, the inhibition was inactive: -4.13%.

On to `Cc1ccc(NCCc2c([N+](=O)[O-])cc([N+](=O)[O-])cc2[N+](=O)[O-])cc1`, for which the inhibition was inactive: -8.45%.

On to `Nc1cccc2c([As](=O)(O)O)cccc12`, for which the inhibition was inactive: 1.19%.

On to `COc1cc(C2NCCC3(OCCO3)C2(C)C)cc(OC)c1OC` (configuration not stated), for which the inhibition is inactive: -29.7%.

In the case of `CCOP(=O)(Nc1cccc2ccccc12)OCC`, the inhibition was inactive: 4.42%.

On to `CN(CCCl)Cc1cc(Cl)c(NC2=NCCN2)c(Cl)c1`, for which the inhibition is inactive: -9.46%.

On to `CCOP(=O)(Nc1ccc(C)cn1)OCC`, for which the inhibition is inactive: 6.38%.

As for `CCC1=CC2Cc3nc4ccc(Cl)cc4c(N)c3C(C1)C2` (configuration not stated), the inhibition was inactive: 21.6%.

Regarding `O=P1(Nc2ccccn2)COc2ccccc2OC1`, the inhibition was inactive: -4%.

Consider `CCOP(=O)(NC(=NC(C)c1ccccc1)NC(C)c1ccccc1)OCC` (configuration not stated), for which the inhibition was inactive: 5.61%.

For the molecule `Clc1n[nH]nc1-c1nn[nH][15n]1`, the inhibition is inactive: 2.22%.

For `O=P1(N(CCCl)CCCl)NCCC(C(F)(F)F)O1` (configuration not stated), the inhibition is inactive: 2.35%.

Consider `CC(C)(C)C(=O)NC(Sc1ncccn1)C(Cl)(Cl)Cl` (configuration not stated), for which the inhibition was inactive: 19.8%.

As to `COc1ccccc1CNC(=O)COC(=O)C(O)(c1ccccc1)c1ccccc1`, the inhibition was inactive: -1.85%.

For `CC1(CBr)Cn2c(nc3ccccc3c2=O)S1` (configuration not stated), the inhibition is inactive: 8.93%.

As for `CN(C(=O)Cc1ccc(Cl)c(Cl)c1)[C@@H]1CCCC[C@H]1N1CCCC1`, the inhibition is inactive: 0.24%.

As to `CC(C)/C=N\N=C(\N)N[N+](=O)[O-]`, the inhibition was inactive: -18.7%.

`Cc1nn(-c2ccccc2)c2c1P(=O)(N1CCOCC1)N(C)C(c1ccccc1)=N2` (configuration not stated): the inhibition was inactive: -12.8%.

Turning to `Cc1ccc(C(=O)OC2CN3CCC2CC3)cc1` (configuration not stated), the inhibition was inactive: -2.83%.

In the case of `CC1CCC(C(C)C)C(OP(=O)(Nc2ccccn2)c2ccccc2)C1` (configuration not stated), the inhibition is inactive: -19.7%.

In the case of `O=C(/C=C/c1ccccc1)OC1CN2CCC1CC2` (configuration not stated), the inhibition is inactive: -7.92%.

Consider `CCCC1OP(=O)(Nc2ccccc2)OCC1CC` (configuration not stated), for which the inhibition was inactive: -5.62%.

As for `O=P1(Nc2ncccn2)COc2ccccc2OC1`, the inhibition is inactive: 0.7%.

In the case of `Cc1ccc(S(=O)(=O)N(CCCN)CCCc2c(C)nc(N)[nH]c2=O)cc1`, the inhibition is inactive: -3.79%.

In the case of `NS(=O)(=O)c1cccc(NC(=O)COC(=O)C(O)(c2ccccc2)c2ccccc2)c1`, the inhibition is inactive: 0.78%.

Regarding `O=P1(Nc2ccc(Br)cn2)COc2ccccc2OC1`, the inhibition is inactive: 1.67%.

Turning to `Cc1ccc(OCC(=O)OC2CN3CCC2CC3)cc1` (configuration not stated), the inhibition is inactive: -11%.

As to `O=[As](O)(c1cccs1)c1cccs1`, the inhibition is inactive: -2.72%.

Take `Nc1cccc([As](=O)(O)c2ccccc2)c1`: the inhibition was inactive: 13.9%.

Regarding `CC1CCNP(=O)(N(CCCl)CCCl)O1` (configuration not stated), the inhibition is inactive: 2.37%.

As to `C/C=C1/CC(C)C(C)(O)C(=O)OCC2CCN3CCC(OC1=O)C23` (configuration not stated), the inhibition was active: 44.1%.

Take `O=C(O)C(O)c1ccc(N(CCCl)CCCl)cc1` (configuration not stated): the inhibition was inactive: -8.82%.

As to `CCOC(=O)Nc1ccc([As](=O)(O)O)c(O)c1`, the inhibition is inactive: 3.02%.

As to `Cc1cc(SC(NC(=O)c2ccccc2)C(Cl)(Cl)Cl)nc(C(C)C)n1` (configuration not stated), the inhibition is inactive: 5.7%.

Take `COP(=O)(OC)N1CC1c1ccccc1` (configuration not stated): the inhibition is inactive: 6.84%.

`CCOC(=O)Nc1cccc([As](=O)(O)O)c1`: the inhibition is inactive: 7.27%.

For `O=[N+]([O-])c1ccc(Nc2ccc(Oc3ccc([N+](=O)[O-])cc3[N+](=O)[O-])cc2)c([N+](=O)[O-])c1`, the inhibition was inactive: 7.38%.

As to `Cc1cc(SC(NC=O)C(Cl)(Cl)Cl)ncn1` (configuration not stated), the inhibition was inactive: -1.68%.

With `O=P(Nc1ccccn1)(c1cccc2ccccc12)c1cccc2ccccc12`, the inhibition is inactive: 1.03%.

For `COP1(=S)c2c(C)nn(CCC#N)c2N=C(c2ccc(F)cc2)N1C` (configuration not stated), the inhibition is inactive: 0.64%.

For `COC(=O)C1(C)COP(=O)(N2CCCC2)OC1` (configuration not stated), the inhibition is inactive: -6.52%.

For `O=C(COc1ccccc1)OC1CN2CCC1CC2` (configuration not stated), the inhibition is inactive: 13.8%.

Regarding `O=C(Nc1ccncc1[N+](=O)[O-])c1ccc([N+](=O)[O-])cc1[N+](=O)[O-]`, the inhibition is inactive: -3.75%.

With `O=C(O)C(=O)c1ccc(N(CCCl)CCCl)cc1`, the inhibition was inactive: -14.1%.

Consider `CCOC(=O)c1ccc(NC(=O)C(C)(CCl)SC)cc1` (configuration not stated), for which the inhibition was inactive: 5.41%.

Consider `O=C(OC1CN2CCC1CC2)c1cccc([N+](=O)[O-])c1` (configuration not stated), for which the inhibition was inactive: -0.52%.

With `CSc1ccc(Nc2c([N+](=O)[O-])cc([N+](=O)[O-])cc2[N+](=O)[O-])cc1`, the inhibition was inactive: -16.2%.

Regarding `CCC(C)N(CC(C)C)C(=S)SC(NC(C)=O)C(Cl)(Cl)Cl` (configuration not stated), the inhibition is inactive: 6.08%.

Take `Cc1cc(=O)[nH]c(N[N+](=O)[O-])n1`: the inhibition was inactive: -7.91%.

For the molecule `Cc1c2c(nc3ccccc13)SC(C(Cl)Cl)C2` (configuration not stated), the inhibition was inactive: -7.79%.

With `COc1ccc2nc(NP(=O)(c3ccccc3)c3ccccc3)sc2c1`, the inhibition was inactive: -6.61%.

Regarding `COc1cc(I)ccc1[As](=O)(O)O`, the inhibition was inactive: -4.26%.

Consider `O=P1(N(CCCl)CCCl)Nc2ccccc2N1`, for which the inhibition is inactive: 0.1%.

As to `O=P1(N(CCCl)CCCl)OCCCN1CCCl` (configuration not stated), the inhibition is inactive: 6.36%.

Consider `COc1ccc(N/C(=N/P(=O)(N2CCOCC2)N2CCOCC2)N2CCOCC2)cc1`, for which the inhibition was inactive: 0.98%.

With `O=[N+]([O-])c1cc(Oc2ccc([N+](=O)[O-])cc2C(F)(F)F)cc([N+](=O)[O-])c1`, the inhibition was inactive: -12.4%.

Regarding `O=[As](O)(c1ccc(O)cc1)c1ccccc1O`, the inhibition was inactive: -2.02%.

Regarding `C[As](=O)(O)c1cccc(C(=O)O)c1`, the inhibition is inactive: -0.3%.

Take `O=[N+]([O-])c1ccc(-c2cc([N+](=O)[O-])c(O)c([N+](=O)[O-])c2)cc1`: the inhibition was inactive: -6.54%.

Regarding `Cc1ccc2nc3c(c(C)c2c1)CC(C(Cl)Cl)S3` (configuration not stated), the inhibition is inactive: -23.3%.

As to `Cc1ccc(OP(=O)(Nc2ccc([N+](=O)[O-])cn2)Oc2ccc(C)cc2)cc1`, the inhibition is inactive: -12%.

Take `[N-]=[N+]=NC1CCCCC1NC(=O)c1cc([N+](=O)[O-])cc([N+](=O)[O-])c1` (configuration not stated): the inhibition was inactive: 3.31%.

Take `CC(Cc1ccc(O)cc1)NCC(O)c1cc(O)cc(O)c1` (configuration not stated): the inhibition is inactive: -3.01%.

On to `CC(C)c1ccc(OP(=O)(Nc2ccccn2)Oc2ccccc2F)cc1` (configuration not stated), for which the inhibition is inactive: 6.46%.

For `COC(=O)C1(C)COP(=O)(N2CCCCCC2)OC1` (configuration not stated), the inhibition was inactive: -8.89%.

Turning to `ClCCSc1nnc(-c2cccnc2)o1`, the inhibition was inactive: 2.07%.

On to `CCN(CC)C(=S)SC(NC=O)C(Cl)(Cl)Cl` (configuration not stated), for which the inhibition is inactive: 11%.

In the case of `O=C(OC1CN2CCC1CC2)c1cccc2[nH]cnc12` (configuration not stated), the inhibition is inactive: -6.28%.

Regarding `CC(C)NC(=O)NP(=O)(Oc1ccccc1)Oc1ccccc1`, the inhibition was inactive: -4.01%.

On to `O=[N+]([O-])c1cc([N+](=O)[O-])c(-c2ccn[nH]2)s1`, for which the inhibition is inactive: -5.88%.
